Literature values as cited in paper PMC10945480 (Journal of Medicinal Chemistry, 2024).

System: washed human platelets
Details: read-out: platelet aggregation IC50, U46619 induced, U46619 (1 μM); cited from earlier work

For `CC(=O)Oc1ccccc1C(=O)O` [aspirin], the IC50 is given as > 200 µM.
